Biological target: TREM2 extracellular domain (ECD) (residues 19-131, C-terminally biotinylated, deglycosylated or glycosylated) (Homo sapiens, UniProt Q9NZC2)
Assay: biochemical
Conditions: Human BLI (Kd; nM) (deglycosylated), Table 4A, steady-state KD, 25° C.
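Also: Bio-layer interferometry in 50 mM HEPES pH 7.5 with 150 mM NaCl and 0.1% Tween, double-referenced with blank wells and unrelated-protein sensors, equilibrium response fitted versus concentration.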

By UniProt entry, the sequences of proteins in these tests, tags left out. Residues count along the entry.
UniProt Q9NZC2, 19-131: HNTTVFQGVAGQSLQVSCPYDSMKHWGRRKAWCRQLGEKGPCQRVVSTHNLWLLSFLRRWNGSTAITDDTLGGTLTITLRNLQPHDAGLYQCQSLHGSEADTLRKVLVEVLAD

SMILES | Kd [nM]
C[C@H](N)C(=O)N[C@H]1CSCCC(=O)N2CN3CN(C2)C(=O)CCSC[C@H](NC(=O)[C@H](Cc2ccc(O)cc2)NC(=O)[C@H](CCC(=O)O)NC(=O)[C@H](CO)NC1=O)C(=O)N[C@@H](Cc1ccccc1)C(=O)N[C@@H](Cc1c[nH]c2ccccc12)C(=O)N1CCC[C@H]1C(=O)N[C@@H](Cc1ccccc1)C(=O)N[C@@H](Cc1c[nH]c2ccccc12)C(=O)N[C@@H](CC(N)=O)C(=O)N[C@H](C(=O)N[C@@H](C)C(N)=O)CSCCC3=O [BCY17671, A-(SEQ ID NO: 4)-A] | 900
C[C@H](N)C(=O)N[C@H]1CSCCC(=O)N2CN3CN(C2)C(=O)CCSC[C@H](NC(=O)[C@H](Cc2ccc(O)cc2)NC(=O)[C@H](CCC(=O)O)NC(=O)[C@H](CO)NC1=O)C(=O)N[C@@H](Cc1ccccc1)C(=O)N[C@@H](Cc1c[nH]c2ccccc12)C(=O)N1CCC[C@H]1C(=O)N[C@@H](Cc1ccccc1)C(=O)N[C@@H](Cc1ccccc1)C(=O)N[C@@H](CC(N)=O)C(=O)N[C@H](C(=O)N[C@@H](C)C(N)=O)CSCCC3=O [BCY17672, A-(SEQ ID NO: 45)-A] | 2000
CC(C)C[C@@H]1NC(=O)[C@H](Cc2ccc(O)cc2)NC(=O)[C@H](Cc2ccccc2)NC(=O)[C@@H]2CCCN2C(=O)[C@H](Cc2c[nH]c3ccccc23)NC(=O)[C@H](Cc2ccccc2)NC(=O)[C@@H]2CSCCC(=O)N3CN(CN(C3)C(=O)CCSC[C@@H](C(=O)N[C@@H](C)C(N)=O)NC1=O)C(=O)CCSC[C@H](NC(=O)[C@H](C)N)C(=O)N[C@@H](CO)C(=O)N[C@@H](CCC(=O)O)C(=O)N[C@@H](Cc1ccc(O)cc1)C(=O)N2 [BCY19777, A-(SEQ ID NO: 16)-A] | ~1200

Same assay, conditions: Human BLI (Kd; nM) (deglycosylated), Table 4B, steady-state KD, 25° C.

SMILES | Kd [nM]
CC(=O)N[C@H]1CSCCC(=O)N2CN3CN(C2)C(=O)CCSC[C@H](NC(=O)[C@H](Cc2ccc(O)cc2)NC(=O)[C@H](CCC(=O)O)NC(=O)[C@H](CO)NC1=O)C(=O)N[C@@H](Cc1ccccc1)C(=O)N[C@@H](Cc1c[nH]c2ccccc12)C(=O)N1CCC[C@H]1C(=O)N[C@@H](Cc1ccccc1)C(=O)N[C@@H](Cc1ccc(O)c(C(C)(C)C)c1)C(=O)N[C@@H](Cc1c[nH]cn1)C(=O)N[C@H](C(N)=O)CSCCC3=O [BCY20080, Ac-(SEQ ID NO: 76)] | 375
CC(=O)N[C@H]1CSCCC(=O)N2CN3CN(C2)C(=O)CCSC[C@H](NC(=O)[C@H](Cc2ccc(O)cc2)NC(=O)[C@H](CCC(=O)O)NC(=O)[C@H](CO)NC1=O)C(=O)N[C@@H](Cc1ccccc1)C(=O)N[C@@H](Cc1c[nH]c2ccccc12)C(=O)N1CCC[C@H]1C(=O)N[C@@H](Cc1ccccc1)C(=O)N[C@@H](Cc1cccc2ccccc12)C(=O)N[C@@H](Cc1c[nH]cn1)C(=O)N[C@H](C(N)=O)CSCCC3=O [BCY20081, Ac-(SEQ ID NO: 77)] | 1060
C#CCCC(=O)NCCCC[C@@H]1NC(=O)[C@H](CO)NC(=O)[C@@H](NC(C)=O)CSCCC(=O)N2CN3CN(C2)C(=O)CCSC[C@H](NC(=O)[C@H](Cc2ccc(O)cc2)NC1=O)C(=O)N[C@@H](Cc1ccccc1)C(=O)N[C@@H](Cc1c[nH]c2ccccc12)C(=O)N1CCC[C@H]1C(=O)N[C@@H](Cc1ccccc1)C(=O)N[C@@H](Cc1ccc(O)cc1)C(=O)N[C@@H](Cc1c[nH]cn1)C(=O)N[C@H](C(N)=O)CSCCC3=O [BCY20096, Ac-(SEQ ID NO: 84)] | 2500
CC(=O)N[C@H]1CSCCC(=O)N2CN3CN(C2)C(=O)CCSC[C@H](NC(=O)[C@H](Cc2ccc(O)cc2)NC(=O)[C@H](CCC(=O)O)NC(=O)[C@H](CO)NC1=O)C(=O)N[C@@H](Cc1ccccc1)C(=O)N[C@@H](Cc1c[nH]c2ccccc12)C(=O)N1CCC[C@H]1C(=O)N[C@@H](Cc1ccccc1)C(=O)N[C@@H](Cc1ccc(O)cc1)C(=O)N[C@@H](CCCCNC(=N)N)C(=O)N[C@H](C(N)=O)CSCCC3=O [BCY20575, Ac-(SEQ ID NO: 101)] | 375

Source: US11904020B2, “Bicyclic peptide ligands specific for TREM2” (Bicycle Tx Limited, priority 2021, dated 2024)
